Source: patent US20220016052A1, “METHODS FOR TREATING CANCER IN MODELS HARBORING ESR1 MUTATIONS” (Radius Pharmaceuticals, Inc., priority 2018, published 2022)
Structures can show the parent of a compound that is named as a salt.

Assays:
ST941-HI PDX cell line = assay: in vitro activity in ST941-HI cell line derived from PDX (FIGS. 8A-8B); assay type: cell-based; settings: Y537S
Protocol: (§1) At the end of treatment, cells were lysed with the lysis buffer from the 1-step Cells-to-Ct kit and the lysates were processed according to the manufacturer's instructions. qPCR was performed using the 1-step master mix and TaqMan™ probes (Applied Biosystems). The Ct values were analyzed to assess relative changes in expression of PgR (progesterone receptor) mRNA, with GAPDH as an internal control, using the 2-ΔΔCT method.
Referring to FIGS. 8A-8B, the evaluation of elacestrant and fulvestrant and their in vitro respective activities are provided. In FIG. 8A, in vitro cell viability (% of control) is provided with respect to Log[Concentration (μm)] for a ST941-HI PDX cell line. In FIG. 8B, fold change over vehicle control of progesterone receptor (PgR) mRNA levels is plotted with respect to the concentration of elacestrant (0, 10, 100, and 1000 nM) and fulvestrant (0, 10, 100, and 1000 nM) used in treating in vitro ST941-HI cell line derived from PDX.

[1] = system: ST941-HI PDX model harboring an ESR1:Y537S mutation; assay: tumor growth in ST941-HI PDX model (FIGS. 6A-6B, 9A); parameters: species or system mice; settings: ST941-HI PDX in vivo, elacestrant 10, 30, 60 mg/kg, fulvestrant 3 mg/dose
[2] = system: ER / PgR, TFF1, GREB1 in WHIM20 PDX xenograft with an ESR1:Y537S^hom mutation; assay: ER degradation and ER signaling in WHIM20 PDX model (FIGS. 10B-10E); assay type: in vivo, mice
Protocol: End of study tumors were pulverized with the cryoPREP™ Impactor (Covaris) and total RNA was extracted with the RNeasy mini kit (Qiagen). qPCR was performed using the Taqman Fast Virus 1-Step Master Mix and TaqMan™ probes (Applied Biosystems) The Ct values were analyzed to assess relative changes in expression of PgR (progesterone receptor) mRNA, with GAPDH as an internal control, using the 2-ΔΔCT method.
Cells or tumors were harvested post-dosing and protein expression analyzed using standard practice and antibodies as follows: ERa, PR, (Cell Signaling Technologies, Cat#13258; #3153) and Vinculin: Sigma-Aldrich, #v9131). Protein expression was quantified using the AzureSpot software and normalized to vinculin expression.

[3] = system: tumors expressing a mutant form of ERα, namely Y537S ERα; assay: tumor growth in tumors expressing Y537S ERα; assay type: in vivo
[4] = system: ER signaling (PgR, GREB1, TFF1) in tumor cell models having wild type, S463P, D538G, and Y537S mutations; assay: ER signaling in in vitro models harboring ESR1 mutations, RT-qPCR (FIGS. 3A-3C); assay type: cell-based; settings: 10, 100, and 1000 nM
Protocol: as §1

[5] = system: WHIM20 PDX xenograft with an ESR1:Y537S^hom mutation; assay: tumor growth in WHIM20 PDX xenograft (FIG. 10A); settings: additional oncogenic mutations, elacestrant 30, 60 mg/kg, fulvestrant 3 mg/dose
[6] = system: Y537S clone 1, Y537S clone 2, D538G clone 1, D538G clone 2, and S463P clone 1 cancer cell lines; assay: proliferation in in vitro models harboring ESR1 mutations (FIG. 1); assay type: cell-based; settings: elacestrant at 100 nM, in vitro ESR1 mutant clones

Structure (SMILES) | in vitro efficacy (cell viability, PgR mRNA) (ST941-HI PDX cell line) | tumor growth inhibition [1] | ER degradation [2] | ER signaling [2] | tumor growth [3] | proliferation markers (PgR, GREB1, TFF1 fold change relative to control) [4] | tumor growth inhibition ([1]; dihydrochloride) | tumor growth inhibition ([1]; listed as Elacestrant, dihydrochloride) | efficacy (tumor volumes over time) [5] | proliferation [6]
C[C@]12CC[C@@H]3c4ccc(O)cc4C[C@@H](CCCCCCCCC[S+]([O-])CCCC(F)(F)C(F)(F)F)[C@H]3[C@@H]1CC[C@@H]2O (stereo partly shown) [fulvestrant, reference compound] | efficacious in vitro | lack of activity in vivo | degrading ER | inhibiting ER signaling | – | – | – | – | – | –
CCNCCc1ccc(CN(CC)c2cc(OC)ccc2[C@@H]2CCc3cc(O)ccc3C2)cc1 [elacestrant, (6R)-6-(2-(N-(4-(2-(ethylamino)ethyl)benzyl)-N-ethylamino)-4-methoxyphenyl)-5,6,7,8-tetrahydronaphthalen-2-ol dihydrochloride] | efficacious | – | degrading ER | inhibiting ER signaling | inhibit the growth of tumors | decrease of proliferation markers | greater tumor growth inhibition than comparator SERDs | efficacious | partial efficacy | inhibit proliferation
